Experimental data: patent publication US20230285372A1, “Pharmaceutical use of (E)-3-arylheterocyclylprop-2-enoic acid derivatives” (MEDCURIUS INC., priority 2020, published 2023)

Test system: tyrosine hydroxylase (TH)
Assay: Tyrosine hydroxylase (TH) level in midbrain, immunohistochemistry, MPTP mouse
Type: in vivo
Conditions: L-DOPA 10 mg/kg qd; vs model group
Description: The core pathological change of Parkinson's disease is the loss of dopaminergic neurons. Tyrosine hydroxylase (TH), the rate-limiting enzyme in dopamine synthesis, is the landmark protein of the dopaminergic neurons. Therefore, the decrease in its level indicates the loss of the dopaminergic neurons. A key protein for the occurrence and development of Parkinson's disease is α-synuclein protein, and the abnormal modification (hyperphosphorylation) of this protein can inhibit microtubule polymerization, enhance oxidative stress, and thus accelerate the death of the dopaminergic neurons.
Male C57 mouse were screened for their motor function by a mouse rod-rotating test, and unqualified ones were excluded from the test. […] Compound I-5, the positive control drug levodopa (L-DOPA) and MPTP were prepared currently and ready to use. […]
Tissues from all the animals were collected on the second day after the end of the behavioral experiment. […] The level of tyrosine hydroxylase (TH), a marker protein of dopaminergic neurons, was detected by immumohistochemistry, and α-synuclein protein level and phosphorylation level of the protein were detected by Western blot.

Question: `N[C@@H](Cc1ccc(O)c(O)c1)C(=O)O` [L-DOPA, levodopa, reference compound] was tested. Which “TH positive area of substantia nigra” value did it give?
Answer: no significant difference
